Several values for one entry are separate records, joined by “and”; a condition that tells them apart may be missing. Equal values may be shown once. Only a part is listed here, and it is no random draw. Results filed as inconclusive are left out. Activity calls are given as the source filed them. The call rests on the fitted dose curve.
Experiment: cAMP Responsive Elements (CRE) small molecule agonists, cell-based qHTS assay (AID 1963590)
Conditions: CRE-bla HEK293T, beta-lactamase FRET ratio, 3 h; at 42.5 µM (top of the series)
Excerpt: U.S. Tox21 Program National Center for Advancing Translational Sciences [NCATS] Division of Preclinical Innovation [DPI] U.S. Environmental Protection Agency [EPA] National Institutes of Environmental Health Sciences [NIEHS] National Toxicology Program [NTP] U.S. Food and Drug Administration [FDA] Tox21 Assay Overview: CREB (cyclic-AMP Responsive Element Binding Protein) is a cellular transcription factor. It binds to certain DNA sequences called cAMP Responsive Elements (CRE) and regulates the transcription of the genes. […] This cell line can be used to find agonists/antagonists of the cyclic AMP signaling pathway. The activation of the report gene under culture conditions can be detected by fluorescence intensity. This cell line has been used to screen the Tox21 10K compound library to identify agonists that induce oxidative stress.
Tox21 Assay Protocol Summary: CRE-bla Hek 293T cells were suspended in assay medium (DMEM containing 10% dialyzed FBS, 0.1 mM NEAA, 1 mM sodium pyruvate and 25 mM HEPES) and dispensed at 2,000 cells/5 uL /well into 1536-well black wall/clear bottom plates using a Multidrop Combi (ThermoFisher Scientific, Waltham, MA) dispenser. After the assay plates were incubated at 37 C/5% CO2 for 18 hrs, 23 nL of compounds dissolved in DMSO, positive controls or DMSO only was transferred to the assay plate by a pintool workstation (Kalypsys, San Diego, CA). After the plates were incubated at 37 C/5% CO2 for 3 hrs, 1 uL of LiveBLAzer B/G FRET substrate (Invitrogen, Carlsbad, CA) was added to each well using Bioraptr Flying Reagent Dispenser (FRD, Aurora Discovery, San Diego, CA). The plates were incubated at room temperature for 2 h.
On the % scale 0 is the no-effect control and ±100 the full control effect.

| Compound | activation |
| --- | --- |
| NC(=O)Nc1ccc([As](=O)(O)O)cc1 | inactive: -0.117% |

Same assay, conditions: CRE-bla HEK293T, beta-lactamase FRET ratio, 3 h; at 92.4 µM (top of the series)

| Compound | activation |
| --- | --- |
| NC(=O)Nc1ccc([As](=O)(O)O)cc1 | inactive: -0.0068% |

Same assay, conditions: CRE-bla HEK293T, beta-lactamase FRET ratio, 3 h; at 92.4 µM (top of the series) unless noted

| Compound | activation |
| --- | --- |
| COC(=O)Cl | inactive: 4.27% |
| CCCCC(CC)CO[P+](=O)OCC(CC)CCCC (centres undefined) | inactive: 0.475% |
| O=[P+](Oc1ccccc1)Oc1ccccc1 | inactive: 0.56% |
| COP(=S)(Cl)OC | inactive: 0.56% |
| O=C(Cl)OCCOC(=O)Cl | inactive: 0.575% |
| CCCCO[P+](=O)OCCCC | inactive: -0.338% and inactive: -0.519% |
| CCCCOP(OCCCC)OCCCC | inactive: -1.21% |
| CN(C(=O)Cc1cccc2occc12)[C@H]1CC[C@@]2(CCCO2)C[C@@H]1N1CCCC1 | inactive: -0.0374% |
| CN(C(=O)Cc1ccc(Cl)c(Cl)c1)[C@H]1CC[C@@]2(CCCO2)C[C@@H]1N1CCCC1 | inactive: -1.35% [at 42.5 µM] |
| O=P(Cl)(Oc1ccccc1)Oc1ccccc1 | inactive: 2% |
| O=C(Cl)Oc1ccccc1 | inactive: -0.613% |
| ClP(Cl)c1ccccc1 | inactive: -0.229% |
| CN(N=O)C(=N)N[N+](=O)[O-] | inactive: 0.0905% |
| CCOC(=O)Cl | inactive: -0.585% |
| O=P(Cl)(Cl)c1ccccc1 | inactive: 0% |
| CCC(C)(OOC(C)(C)C)OOC(C)(C)C | inactive: -0.691% [at 19 µM] |
| CCOP(=S)(CC)Sc1ccccc1 (centres undefined) | inactive: 2.17% |
| CN(C(=O)Cc1ccccc1)[C@H]1CC[C@@]2(CCCO2)C[C@@H]1N1CCCC1 | inactive: 1.73% [at 42.5 µM] |
| CCNC(C)Cc1ccc2c(c1)OCO2 (centres undefined) | inactive: 0.0773% |
| O=[p+]1oc2ccccc2c2ccccc21 (centres undefined) | inactive: 0.0659% |
| O=[N+]([O-])c1ccc([N+](=O)[O-])cc1 | inactive: 0.102% |
| CC(C)CCCCCCCOP(OCCCCCCCC(C)C)Oc1ccccc1 | inactive: -2.89% |
